# Key:
# Assay in all cases: biochemical
# Format in all cases: binding
# HLA-B*1801 = HLA-B*1801 (Homo sapiens, UniProt P01889, A329T/A93T/A95T/C349S/D201E/D54G/D98Y/E176V/E187T/E204Q/E69T/K202T/Q94N/R155S/R180L/S121R/V306I/Y140S/Y195H/Y33H/Y91S)
# HLA-B*4002 = HLA-B*4002 (Homo sapiens, UniProt P01889, A65T/A93T/A95T/D138N/D201E/D98Y/E176V/E204Q/E69K/K202T/N87E/Q56L/Q94N/R180L/S48T/Y33H/Y91S)
# HLA-B*4402 = HLA-B*4402 (Homo sapiens, UniProt P01889, A223V/A65T/A93T/A95T/D201E/D98Y/E176V/E187L/E204Q/E69K/G107R/H137Y/K202T/L105A/L119I/N104T/N87E/Q56L/Q94N/R106L/R155S/R180D/S101N/S121R/S35A/S48T/T118I/V36M/W191S/Y140D/Y91S)
# HLA-B*4501 = HLA-B*4501 (Homo sapiens, UniProt P01889, A329T/A65T/A93T/A95T/C349S/D138N/D201E/D98Y/E176V/E187L/E204Q/E69K/H137Y/K202T/L119W/N87E/Q56L/Q94N/R155S/R180D/S121R/S35A/S48T/V127L/V306I/V36M/W191S/Y140L/Y33H/Y91S)
structure (smiles),measurement,setting,value
CSCC[C@H](NC(=O)[C@H](C)NC(=O)CNC(=O)[C@H](CO)NC(=O)[C@@H]1CCCN1C(=O)[C@@H](NC(=O)[C@H](CC(C)C)NC(=O)[C@@H]1CCCN1C(=O)[C@H](CCC(=O)O)NC(=O)[C@@H](N)C(C)C)[C@@H](C)O)C(=O)O,IC50,HLA-B*1801,4650 nM
same,IC50,HLA-B*4002,584 nM
same,IC50,HLA-B*4402,4370 nM
CC(C)C[C@H](NC(=O)[C@H](CC(C)C)NC(=O)[C@H](CC(C)C)NC(=O)[C@H](Cc1ccccc1)NC(=O)[C@H](Cc1c[nH]cn1)NC(=O)[C@@H](NC(=O)[C@H](CC(C)C)NC(=O)[C@H](CCC(=O)O)NC(=O)[C@@H](N)C(C)C)C(C)C)C(=O)N[C@@H](CCCCN)C(=O)N[C@@H](Cc1ccc(O)cc1)C(=O)O,IC50,HLA-B*4002,294 nM
same,IC50,HLA-B*4402,1550 nM
CC(C)C[C@H](NC(=O)[C@H](CC(N)=O)NC(=O)[C@H](CCC(=O)O)NC(=O)CN)C(=O)N[C@@H](CC(N)=O)C(=O)N[C@@H](CC(C)C)C(=O)N[C@@H](CO)C(=O)N[C@@H](CS)C(=O)N[C@@H](Cc1c[nH]cn1)C(=O)N[C@@H](C)C(=O)O,IC50,HLA-B*1801,14400 nM
same,IC50,HLA-B*4501,271 nM
same,IC50,HLA-B*4402,8610 nM
CSCC[C@H](NC(=O)[C@H](CCC(=O)O)NC(=O)[C@H](C)N)C(=O)N[C@@H](CC(C)C)C(=O)N[C@@H](CCC(=O)O)C(=O)N[C@@H](CO)C(=O)N[C@H](C(=O)N[C@@H](CC(C)C)C(=O)O)C(C)C,IC50,HLA-B*1801,968 nM
same,IC50,HLA-B*4501,302 nM
same,IC50,HLA-B*4402,327 nM
CC[C@H](C)[C@H](NC(=O)CNC(=O)[C@H](CS)NC(=O)[C@H](CCC(=O)O)NC(=O)[C@@H](N)Cc1ccc(O)cc1)C(=O)N[C@@H](CCC(N)=O)C(=O)N[C@@H](CC(N)=O)C(=O)N[C@@H](CCC(=O)O)C(=O)N[C@@H](CC(C)C)C(=O)O,IC50,HLA-B*4501,855 nM
same,IC50,HLA-B*4402,452 nM
CSCC[C@H](NC(=O)[C@H](CCCNC(=N)N)NC(=O)[C@@H]1CCCN1C(=O)[C@H](C)NC(=O)[C@H](CCC(=O)O)NC(=O)[C@@H](N)CC(=O)O)C(=O)N1CCC[C@H]1C(=O)N[C@@H](CCC(=O)O)C(=O)N[C@@H](C)C(=O)O,IC50,HLA-B*4002,4580 nM
same,IC50,HLA-B*4402,6450 nM
CC(C)C[C@H](NC(=O)[C@H](CCC(=O)O)NC(=O)[C@@H](N)[C@@H](C)O)C(=O)N[C@@H](CCCNC(=N)N)C(=O)N[C@@H](CCCCN)C(=O)N[C@H](C(=O)N[C@@H](CCCCN)C(=O)N[C@H](C(=O)N[C@@H](CC(C)C)C(=O)NCC(=O)O)C(C)C)C(C)C,IC50,HLA-B*1801,721 nM
same,IC50,HLA-B*4002,601 nM
same,IC50,HLA-B*4402,3650 nM
CSCC[C@H](NC(=O)[C@H](CCCNC(=N)N)NC(=O)[C@@H]1CCCN1C(=O)CNC(=O)[C@H](CCC(=O)O)NC(=O)[C@H](CCC(=O)O)NC(=O)[C@@H](N)CCC(=O)O)C(=O)N[C@@H](Cc1ccccc1)C(=O)O,IC50,HLA-B*4501,943 nM
same,IC50,HLA-B*4402,2410 nM
CC[C@H](C)[C@H](NC(=O)[C@H](CCC(=O)O)NC(=O)[C@@H](N)CCCCN)C(=O)N[C@@H](CC(C)C)C(=O)N[C@@H](CC(=O)O)C(=O)N[C@@H](CCC(=O)O)C(=O)N[C@@H](C)C(=O)N[C@@H](Cc1ccc(O)cc1)C(=O)N[C@H](C(=O)O)C(C)C,IC50,HLA-B*1801,1360 nM
same,IC50,HLA-B*4402,6470 nM
CC[C@H](C)[C@H](NC(=O)[C@H](CCC(=O)O)NC(=O)[C@H](CCC(=O)O)NC(=O)[C@H](CC(C)C)NC(=O)[C@@H](NC(=O)[C@H](CCC(=O)O)NC(=O)[C@@H](N)Cc1ccccc1)[C@@H](C)O)C(=O)N[C@H](C(=O)NCC(=O)N[C@@H](Cc1ccc(O)cc1)C(=O)N[C@@H](CC(C)C)C(=O)O)[C@@H](C)O,IC50,HLA-B*4002,649 nM
same,IC50,HLA-B*4402,7490 nM
CC[C@H](C)[C@H](NC(=O)[C@H](CC(N)=O)NC(=O)[C@H](C)NC(=O)[C@H](CO)NC(=O)[C@@H](NC(=O)[C@@H](NC(=O)[C@H](C)NC(=O)[C@H](CCCNC(=N)N)NC(=O)[C@@H](NC(=O)[C@H](CCC(=O)O)NC(=O)[C@@H](N)CCCNC(=N)N)C(C)C)C(C)C)[C@@H](C)O)C(=O)O,IC50,HLA-B*1801,4490 nM
same,IC50,HLA-B*4501,421 nM
same,IC50,HLA-B*4402,1680 nM
CC(C)C[C@H](NC(=O)[C@H](Cc1ccc(O)cc1)NC(=O)[C@H](CCC(=O)O)NC(=O)[C@@H](N)C(C)C)C(=O)N[C@@H](CC(=O)O)C(=O)N[C@@H](CC(=O)O)C(=O)N[C@@H](CCCNC(=N)N)C(=O)N[C@@H](CC(N)=O)C(=O)N[C@H](C(=O)O)[C@@H](C)O,IC50,HLA-B*1801,1440 nM
same,IC50,HLA-B*4501,13500 nM
same,IC50,HLA-B*4402,10100 nM
CC[C@H](C)[C@H](NC(=O)[C@H](CCCCN)NC(=O)[C@H](CCC(=O)O)NC(=O)[C@H](CCC(=O)O)NC(=O)[C@@H]1CCCN1C(=O)[C@H](C)NC(=O)[C@H](CS)NC(=O)[C@H](CC(=O)O)NC(=O)CNC(=O)[C@H](CCC(=O)O)NC(=O)[C@@H](N)CCCNC(=N)N)C(=O)O,IC50,HLA-B*1801,973 nM
same,IC50,HLA-B*4501,146 nM
same,IC50,HLA-B*4402,4040 nM
CC[C@H](C)[C@H](NC(=O)[C@H](Cc1ccc(O)cc1)NC(=O)[C@H](CC(C)C)NC(=O)[C@H](Cc1c[nH]cn1)NC(=O)[C@H](CO)NC(=O)[C@@H](NC(=O)[C@@H]1CCCN1C(=O)[C@@H](NC(=O)[C@@H](NC(=O)[C@H](CCC(=O)O)NC(=O)[C@@H](N)C(C)C)C(C)C)C(C)C)[C@@H](C)CC)C(=O)O,IC50,HLA-B*4002,146 nM
same,IC50,HLA-B*4402,335 nM
CC[C@H](C)[C@H](NC(=O)[C@H](CCCCN)NC(=O)[C@H](CCC(=O)O)NC(=O)[C@@H](N)CCC(=O)O)C(=O)N[C@@H](Cc1c[nH]c2ccccc12)C(=O)N[C@@H](CCC(=O)O)C(=O)N[C@@H](CCC(=O)O)C(=O)N[C@@H](CC(C)C)C(=O)N[C@@H](CO)C(=O)N[C@H](C(=O)N[C@@H](CC(C)C)C(=O)O)C(C)C,IC50,HLA-B*4501,218 nM
same,IC50,HLA-B*4402,1420 nM
CC(C)C[C@H](NC(=O)[C@@H](NC(=O)[C@H](CCCCN)NC(=O)[C@@H](NC(=O)[C@H](CCCCN)NC(=O)[C@H](CCCNC(=N)N)NC(=O)[C@H](CC(C)C)NC(=O)[C@H](CCC(=O)O)NC(=O)[C@@H](NC(=O)[C@H](CCC(=O)O)NC(=O)[C@@H](N)CCCCN)[C@@H](C)O)C(C)C)C(C)C)C(=O)O,IC50,HLA-B*1801,9530 nM
same,IC50,HLA-B*4002,1870 nM
same,IC50,HLA-B*4501,12200 nM
same,IC50,HLA-B*4402,7140 nM
CC(C)C[C@H](NC(=O)[C@H](C)NC(=O)[C@H](CCC(=O)O)NC(=O)CNC(=O)[C@H](CCCNC(=N)N)NC(=O)[C@H](C)NC(=O)[C@H](CCC(=O)O)NC(=O)[C@H](CC(C)C)NC(=O)CNC(=O)[C@H](CCC(=O)O)NC(=O)[C@@H](N)CCC(=O)O)C(=O)O [EEGLEARGEAL],IC50,HLA-B*4002,578 nM
same,IC50,HLA-B*4402,2630 nM
CSCC[C@H](N)C(=O)N[C@@H](CCC(=O)O)C(=O)N[C@@H](Cc1c[nH]cn1)C(=O)N[C@@H](CC(C)C)C(=O)N[C@@H](CCCNC(=N)N)C(=O)N[C@@H](CCC(=O)O)C(=O)N[C@H](C(=O)N[C@@H](CCCNC(=N)N)C(=O)N[C@@H](C)C(=O)N[C@H](C(=O)N[C@H](C(=O)O)[C@@H](C)O)C(C)C)C(C)C,IC50,HLA-B*4002,2210 nM
same,IC50,HLA-B*4402,795 nM
CC(C)C[C@H](NC(=O)[C@H](CCC(=O)O)NC(=O)[C@@H](NC(=O)[C@H](CCC(=O)O)NC(=O)[C@@H](N)CCCCN)[C@@H](C)O)C(=O)N[C@@H](CCCNC(=N)N)C(=O)N[C@@H](CCCCN)C(=O)N[C@H](C(=O)N[C@@H](CCCCN)C(=O)N[C@H](C(=O)O)C(C)C)C(C)C,IC50,HLA-B*1801,11900 nM
same,IC50,HLA-B*4501,1600 nM
same,IC50,HLA-B*4402,2940 nM
CC(C)C[C@H](NC(=O)[C@H](CC(=O)O)NC(=O)[C@H](CCCNC(=N)N)NC(=O)[C@H](Cc1c[nH]cn1)NC(=O)[C@@H](NC(=O)[C@H](CC(C)C)NC(=O)[C@H](CCCNC(=N)N)NC(=O)[C@@H](NC(=O)[C@H](CC(=O)O)NC(=O)[C@H](CCC(=O)O)NC(=O)[C@@H](N)CC(C)C)C(C)C)C(C)C)C(=O)O,IC50,HLA-B*1801,729 nM
same,IC50,HLA-B*4002,641 nM
same,IC50,HLA-B*4501,2380 nM
same,IC50,HLA-B*4402,818 nM
CC[C@H](C)[C@H](NC(=O)[C@@H](NC(=O)[C@H](CCC(N)=O)NC(=O)[C@H](CCCNC(=N)N)NC(=O)[C@H](CC(N)=O)NC(=O)CNC(=O)[C@H](CC(=O)O)NC(=O)[C@@H](NC(=O)[C@H](CCCNC(=N)N)NC(=O)[C@H](CCC(=O)O)NC(=O)CN)C(C)C)[C@@H](C)CC)C(=O)O,IC50,HLA-B*1801,764 nM
same,IC50,HLA-B*4402,871 nM
CC(C)C[C@H](NC(=O)[C@H](CCC(=O)O)NC(=O)[C@@H](N)CC(C)C)C(=O)N[C@H](C(=O)N[C@@H](Cc1ccc(O)cc1)C(=O)N[C@@H](CC(C)C)C(=O)N1CCC[C@H]1C(=O)N[C@H](C(=O)N[C@@H](CC(N)=O)C(=O)N[C@@H](C)C(=O)O)[C@@H](C)O)[C@@H](C)O,IC50,HLA-B*1801,332 nM
same,IC50,HLA-B*4402,6430 nM
CC[C@H](C)[C@H](NC(=O)[C@H](CCC(=O)O)NC(=O)[C@@H](N)CCCCN)C(=O)N[C@@H](CC(C)C)C(=O)N[C@@H](CC(=O)O)C(=O)N[C@@H](CCC(=O)O)C(=O)N[C@@H](C)C(=O)N[C@@H](Cc1ccc(O)cc1)C(=O)N[C@H](C(=O)N[C@@H](CCSC)C(=O)O)C(C)C,IC50,HLA-B*4501,234 nM
same,IC50,HLA-B*4402,35 nM
CC(C)[C@H](NC(=O)[C@H](CCC(=O)O)NC(=O)[C@@H](N)CCC(N)=O)C(=O)N[C@H](C(=O)N[C@@H](C)C(=O)N[C@@H](CCC(=O)O)C(=O)N[C@@H](CC(=O)O)C(=O)NCC(=O)N[C@H](C(=O)O)[C@@H](C)O)[C@@H](C)O,IC50,HLA-B*1801,5210 nM
same,IC50,HLA-B*4501,1840 nM
same,IC50,HLA-B*4402,7890 nM
